Literature values as cited in patent US9149455B2, “Methods of treating melanoma” (Abraxis BioScience, LLC, priority 2012, dated 2015).

Test system: metastatic melanoma
Conditions: literature; cited from earlier work

For “HD IL-2: high dose interleukin 2, FDA-approved therapy for metastatic melanoma”, the “effect on median overall survival” value is given as “neither of which increased median overall survival”.
